# Experiments:
# Median toxic dose = details: in vivo
# [1] = Lowest effective dose, compound administered alone; details: i.m.
# [2] = test system: pain following dental surgery; assay: Postoperative dental pain study; details: for pain intensity (visual analog scale, 240 minute period): patients after dental surgery, i.v., compared to placebo
# [3] = test system: seizures induced by pentylenetetrazole administration; assay: Pentylenetetrazole seizure model; details: 30 minute s.c. pretreatment
# [4] = test system: seizures induced by intracerebral injection of S-AMPA; assay: S-AMPA induced seizure model; details: mouse; intravenously 15 minutes prior to S-AMPA (1.25 nmol intracerebral)
# [5] = Maximum tolerated dose study in human volunteers; details: i.v. bolus
# [6] = test system: locus coeruleus (LC) neuronal cell firing; assay: Locus coeruleus neuronal firing during morphine withdrawal, in vivo electrophysiology; details: 10 mg/kg; anesthetized animals; withdrawal raised firing from 0.5 Hz to 4 Hz
# [7] = test system: capsaicin-induced spontaneous pain, allodynia and hyperalgesia; assay: Capsaicin pain crossover study in volunteers
# [8] = test system: seizures induced by electrical shock (corneal electrode); assay: Corneal electrical stimulation seizure model; details: sc, 30 minute pretreatment
# [9] = test system: ambulations induced by phencyclidine; assay: Phencyclidine-induced ambulations in catecholamine depleted rats; details: 3 mg/kg sc, 30 minutes prior to PCP
# [10] = test system: seizures evoked by direct stimulation of the amygdala; assay: Amygdala stimulation seizure model; details: direct stimulation of the amygdala via implanted electrodes
# morphine dependent rats = assay: Naloxone-precipitated withdrawal in morphine dependent rats, behavior scoring
# [11] = test system: moderate to severe migraine symptoms; assay: Acute migraine study; details: for patients pain free at 2 hours: migraine patients, LY 1.2 mg/kg i.v., sumatriptin subcutaneous
# [12] = Plasma and brain levels of LY293558 after intramuscular injection; details: 15 mg/kg intramuscular; from 15 minutes
# [13] = test system: tonic extensor seizures, audiogenic stimulus; assay: Audiogenic seizure model; details: audiogenic stimulus 120 dB white noise, 60 s; s.c., 30 minute pretreatment
compound,measurement,setting,value
CCN(CC)CCOC(=O)C1(c2ccccc2)CCCC1,median toxic dose (TD50),Median toxic dose,162 mg/kg
same,lowest effective dose (LED),[1],100 mg/kg
O=C(c1ccccc1)c1ccc2n1CCC2C(=O)O (stereo not shown),"pain intensity (visual analog scale, 240 minute period)",[2],significantly reduced
"(3S,4aR,6R,8aR)-6-[2-(1(2)H-tetrazole-5-yl) ethyl]decahydroisoquinoline-3-carboxylic acid","ED50, proportion of mice completely protected from seizure",[3],10.3 mg/kg
same,"ED50, proportion of animals experiencing seizures",[4],2.95 mg/kg
same,dose at which headache was noted (two individuals),[5],1.8 mg/kg
same,dose at which vision changes and sedation were noted beginning,[5],0.9 mg/kg
same,median MTD,[5],1.3 mg/kg
same,rating of adverse events,[5]; escalation to 2.0 mg/kg,mild in all instances
same,LC neuronal cell firing during morphine withdrawal,[6],1 Hz
same,volunteers with mild visual symptoms,[7]; 19 of 20 volunteers,95%
same,side effect: headache,[7]; volunteers,10%
same,side effect: sedation,[7]; volunteers,40%
same,spontaneous pain and allodynia,"[7]; volunteers, s.c. capsaicin, 33% and 100% of MTD vs. placebo",significantly reduced
same,pinprick hyperalgesia,"[7]; volunteers, s.c. capsaicin, both doses",nominally reduced
same,"ED50, corneal electrical stimulation seizures",[8],9 mg/kg
same,reduction of PCP-induced ambulations,[9],52%
same,incidence of headache,[2]; mild to moderate side effects,40%
same,incidence of nausea,[2]; mild to moderate side effects,5%
same,incidence of sedation,[2]; mild to moderate side effects,15%
same,incidence of visual disturbance,[2]; mild to moderate side effects,20%
same,"pain intensity (visual analog scale, 240 minute period)",[2],significantly reduced
same,median toxic dose (TD50),Median toxic dose,20 mg/kg
same,threshold stimulus for evoking seizures,[10],ineffective
same,"ptosis, chewing, diarrhea, stereotyped head movements and writhing",morphine dependent rats; 10 mg/kg s.c.,statistically significantly reduced
same,"wet dog shakes, lacrimation and salivation",morphine dependent rats; 30 mg/kg s.c.,significantly reduced
same,composite withdrawal score,"morphine dependent rats; 1, 10 or 30 mg/kg s.c., 15 minutes prior to naloxone, 1 hour observation",dose dependent improvement
same,"irritability, digging, jumping, chatter and erection","morphine dependent rats; rat, in vivo","nominally lower, but did not reach statistical significance"
same,lowest effective dose (LED),[1],15 mg/kg
same,patients pain free at 2 hours,[11],54%
same,recipients experiencing an adverse event (dizziness and sedation),[11]; two patients,15%
same,plasma and brain levels,[12],remain measurable to the final time point at 8 hours
same,"ED50, protection from tonic extensor seizures",[13],1.9 mg/kg
sumatriptin,patients pain free at 2 hours,[11],60%

# From patent US11744829B2, “Methods for treating neurological conditions and exposure to nerve agents” (dated 2023)
